Source: patent US20260382635A1, “NITROSYL-HEME FORMULATIONS FOR THE TREATMENT OF CARDIOVASCULAR CONDITIONS, HEMOLYSIS, AND THE STABILIZATION OF CELL-FREE HEME MOLECULES” (published 2026)

Experiments:
[1] = Chemiluminescent quantification of NO from NO-ferroheme and GSNO in MeOH:PBS buffer
Method: A Zysense Nitric Oxide Analyzer 280i or an ECO PHYSICS nCLD 88 liquid NO system was used to detect NO congeners, with data from the former recorded using SIEVERS Windows 95/98/NT (v3.21 PNN) and the latter using eDAQ Chart (v5.5.27). Measurements of nitrosothiols was made using Cu/Cys assay (2C assay) or tri-iodide assay.^40 NO-ferroheme was measured by injecting an amount each sample into the NOA purge vessel containing 50 mM potassium [COMPOUND LEFT OUT] in PBS at 25 or 37 °C. See following Examples for specific amounts. Samples were protected from light by aluminum foil.
The identity and stoichiometry of the reaction products support a mechanism involving thiol-catalyzed reductive nitrosylation of ferric heme to form NO-ferroheme and a thiyl radical, which subsequently reacts with excess NO to form secondary S-nitrosoglutathione (GSNO). These species, NO-ferroheme and GSNO, were identified and quantified by reductive chemiluminescence with NO detection in the chemiluminescent nitric oxide analyzer (FIG. 1G, Untreated bars). […]

mice = assay: Changes in murine mean arterial pressure (MAP); conditions: 7.5 nM-7.5 μM; except highest dose of dissolved NO (7.5 μM)
Method: A total of 70 male C57BL/6J mice (the Jackson Laboratory), aged between 12 to 14 weeks, were anesthetized by isoflurane (2.5%) for all experiments. Mice were in rooms maintaining 12/12 h light/dark cycles at 20-26 °C and 30-70% relative humidity. 10 of these total mice were used to establish the parameters of the model. Body temperature was maintained at 37 °C by a heating pad connected to heat pump (Androit). Catheters were implanted for carotid artery and jugular vein. Arterial blood pressure was continuously recorded through a blood pressure transducer (MLT699, ADInstrument) connected to an 8-channel Powerlab (ADInstrument). A tracheal tube was introduced and connected to a rodent ventilator (Model 849, MidiVent). Upon completion, in some animals, the fraction of inspiratory O2 was decreased from 21% to 10% to induce hypoxia. 75 μL of L-NAME was administered intravenously in a bolus at a dose of 10 mg/kg bodyweight. Ten minutes after L-NAME injection, animals were injected with 50 μL of NO-ferroheme, normal saline (NS), NO control, or freshly prepared GSNO^77 control for 4 times at 10-minute intervals. An NO-ferroheme in albumin stock was prepared via a concentrated version of the direct method as described above: 300 μM ferric heme was mixed anaerobically on a Schlenk line with 3 mM GSH and 600 μM NO in 500 μM albumin using air-tight Hamilton syringes. NO controls were generated similarly and comprised 300 μM dissolved NO with 3 mM GSH in anaerobic albumin solution. Likewise, GSNO stocks comprised 300 μM GSNO with 3 mM GSH in anaerobic albumin solution. Each of these stocks (NO-ferroheme, NO control, or GSNO control) were handled identically and diluted further in air with 500 μM albumin solution before injection by 1000-, 100-, and 10-fold. Mean arterial pressure (MAP) values were obtained by processed the recorded arterial pressure data with LabChart 7.3.8 (ADInstruments). To quantify changes ΔMAPmax was determined, defined as the average MAP before an injection (average of 3 to 5 time points) subtracted from the maximum change within 3 minutes after injection (average of 3-5 time points) for each species at a given concentration.
Using male C57BL/6J mice, catheters were inserted into the right carotid artery and jugular vein for monitoring MAP and for dose injections, respectively. Fresh NO-ferroheme stock solutions were generated in an anaerobic environment by mixing 300 μM hemin, 3 mM glutathione, 600 μM NO, and 500 μM bovine serum albumin in PBS. To establish that vasodilation was independent of endogenous eNOS-derived NO, mice were first treated with the NOS inhibitor L-NG-nitroarginine methyl ester (L-NAME). Four doses of NO-ferroheme were administered at estimated blood concentrations of 7.5 nM, 75 nM, 0.75 μM, and 7.5 μM. Doses were injected intravenously every ten minutes, long enough for the blood pressure to stabilize.
Injections of NO-ferroheme solution in hypoxic animals were characterized by a rapid, transient relaxation, as monitored by changes in MAP. The MAP almost completely returned to the L-NAME induced baseline after ten minutes when compared to normal saline controls (FIG. 5A). […] These changes were also significant versus normal saline at 75 nM under normoxic conditions (p=0.0002), 0.75 μM and 7.5 μM (p<0.0001, FIG. 5D, open squares vs circles).
This synthesis can involve multiple potential vasodilators including NO itself, GSNO, and NO-ferroheme. Therefore, it was desirable to define the dominant vasodilating species. The vasodilation potency of NO and GSNO was compared. Fresh stocks of NO were made (300 μM NO, 3 mM glutathione, and 500 μM albumin) and mice were injected in 10-minute intervals at the same dosing as the NO-ferroheme albumin injections (7.5 nM, 75 nM, 0.75 μM, and 7.5 μM dissolved NO) under 10% hypoxia and normoxia (FIGS. 5A and 5B, hashed traces). […]

rodents = conditions: concentrations less than 300 μM; cited from earlier work
sGC = assay: Cyclic GMP ELISA in platelet-rich plasma; conditions: 1 μM ODQ, with and without tadalafil
Method: 96-well Cyclic GMP ELISA kits were purchased from Cayman Chemical. Fresh platelet-rich plasma (PRP) was collected from different healthy donors by centrifugation of the blood samples at 300 g for 5 minutes. PRP was diluted 1:7 using the mixture of NO-ferroheme at concentrations described above, 1 μM ODQ (Cayman Chemical), 10 nM PDE inhibitor (Tadalafil, Cayman Chemical), or 2 μM NO. The final 500 μL volumes were adjusted with argon-degassed buffer. Samples with ODQ were incubated with platelets for 10 minutes at room temperature prior to any further additions. All samples were incubated in a 37 °C water bath for 15 minutes and then fixed using a 1:4 dilution of ice-cold 99.5% ethanol. The supernatants were collected after centrifuging at 1,500 g for 10 minutes followed by hours of incubation for the evaporation of ethanol. ELISA buffer (500 μL) was then added to the ethanol-free samples and used in the ELISA 96-well plate for triplicate readings. The non-acetylated approach was performed following the manufacturer's instructions. The plate was analyzed at 412 nm wavelength at room temperature by a Molecular Devices SpectraMax 340 PC microplate reader. SoftMax Pro (v4.8) was used to collect and analyze ELISA data. […]

[2] = NO-ferroheme formation kinetics in red blood cell membrane ghosts (UV-Vis); conditions: 250 μM thiol or sulfide; 25 μM heme, 100 μM NO, red cell ghosts; scanning every minute
Method: Red cells were separated from the whole blood by sedimentation via centrifugation at 1000 g for 10 minutes. These packed red cells were then hemolyzed using 5 mM phosphate buffer, pH 8 (4.674 mM Na2HPO4+0.326 mM NaH2PO4) in the volume ratio of 1:40 for an hour. The mixture was spun at 35,000 g for 30 minutes at 20 °C and washed with the buffer repeatedly until the white ghosts were produced. The absence of hemoglobin was confirmed by taking the absorption of the ghosts in the range of 300-700 nm. Differential interface contrast microscopy images of the ghost membranes were taken via a Zeiss Axio Observer D1 Microscope. Images were collected and processed using ImageJ (1.44p).
Heme is hydrophobic and can be solubilized in organic solvents like methanol. […] The use of RBC membrane ghosts enabled characterization of the NO-ferroheme product by low temperature electron paramagnetic resonance (EPR) spectroscopy. Both reactions (in the presence and absence GSH) give rise to a rhombic EPR spectrum characteristic of a five-coordinate NO-ferroheme species with g-values at 2.081, 2.054, and 2.012 for gmax, gmid, and gmin, respectively, and a three-line hyperfine splitting centered on gmin (^NOA=47 MHz, FIG. 2D).^45,46
25 μM heme and 100 μM NO were reacted in the red cell ghost system under anoxic conditions at room temperature in the absence of any thiol species. […]

SMILES: CC1(C)CCC=[N+]1[O-]
- effect of DMPO on formation of GSNO [1]: completely abrogated the formation of GSNO

SMILES: N[C@@H](CCC(=O)N[C@@H](CSN=O)C(=O)NCC(=O)O)C(=O)O
- change in MAP vs normal saline, words (mice): no significant changes in MAP
- effect on MAP (rodents): does not significantly affect MAP

SMILES: O=c1onc2cnc3ccccc3n12
- effect of ODQ on NO-ferroheme cGMP response (sGC): ablated NO-ferroheme response

SMILES: N[C@@H](CS)C(=O)NCC(=O)O
- NO-ferroheme reaction completion [2]: completes the NO-ferroheme reaction within the first scan
